Sequences of proteins named here, by UniProt entry; tags and fusion partners are left off.
Melanocortin receptor 4 (Homo sapiens), P32245, UniProt P32245, whole entry, looked up: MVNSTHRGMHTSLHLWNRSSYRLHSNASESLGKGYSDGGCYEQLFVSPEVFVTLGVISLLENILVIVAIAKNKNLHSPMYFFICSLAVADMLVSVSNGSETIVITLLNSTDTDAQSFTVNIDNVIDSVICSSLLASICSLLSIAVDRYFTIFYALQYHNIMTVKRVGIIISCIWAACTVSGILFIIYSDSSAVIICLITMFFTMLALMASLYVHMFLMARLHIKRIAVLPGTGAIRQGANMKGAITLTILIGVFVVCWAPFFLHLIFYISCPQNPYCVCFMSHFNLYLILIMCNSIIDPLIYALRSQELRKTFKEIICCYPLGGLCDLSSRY

# MC4R antagonist – MC4R antagonists of cAMP signaling, primary screen, cell-based, TR-FRET, antagonist arm of biased-ligand search; MC4R-expressing cells, MTII-stimulated cAMP, LANCE TR-FRET; inhibition, % at 6.5 µM; 360,000 compounds, 0.48% hits;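 active means inhibition above its plate's cutoff, the mean of tested wells on that plate plus 3 SD, cut at about 29% in these data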;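 further: 0% = Melanotan II alone and 100% = Melanotan II plus saturating MCL0020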
#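 Assay system: human MC4R-expressing U2OS cells; reagent: Melanotan II stimulation of cells; dosing: 6.5 µM single dose; timing: compound 30 min, challenge 1 h, detection 1 h; signal: TR-FRET cAMP assay; replicates: one well per compound, no replicates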
# NALP1 inh – NALP1 inflammasome inhibitors in reconstituted yeast, colorimetric, S. cerevisiae, triplicate retest. S. cerevisiae NALP1/ASC/caspase-1 growth, X-gal OD620, 72 h. 280,000 compounds, 0.61% hits. inhibition, % at 10 µM. AID 2071, 2009; in the data active means inhibition mostly above about 24%, no sharp cut-off; inactive means mostly below about 32%
# Yeast UUG start – modulators of yeast start codon fidelity, primary screen, whole organism, S. cerevisiae, single point, plate reader | AID 602363, 2012 | S. cerevisiae UUG-firefly luciferase reporter, luminescence/redox ratio | activity score, % at 18.7 µM | hit rate 0.13% among 350,000;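 active = replicate mean at a twofold rise or more, about +100% in these data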;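 also: firefly luciferase made from a UUG start codon reports start codon fidelity; reporter light over untreated wells divided by growth signal over untreated wells; some hits fall short of that in this replicate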
# MC4R barr agon – MC4R agonists recruiting beta-arrestin, primary screen, cell-based, luminescence, agonist arm of biased-ligand search. U2OS MC4R beta-arrestin complementation; percent of melanotan II response, DMSO zero. 360,000 compounds, 0.98% hits. activation, % at 8.9 µM. Melanocortin receptor 4 (Homo sapiens), P32245. AID 540308, 2011;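 active means activation above a per-plate cutoff, the mean activation of sample wells on that plate plus 3 SD, cut at about 8% in these data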
# HDAC3 inhib – HDAC3 deacetylase inhibitors, primary screen, biochemical, fluorescence, cell-free homogeneous; 320,000 compounds, 0.15% hits; AID 2718, 2010; inhibition, % at 8.3 µM; recombinant HDAC3, fluorogenic peptide/trypsin coupled; Histone deacetylase 3 (Homo sapiens), O15379; in the data active means inhibition above about 26%, passing the limit was not always enough
# ALR inh – human ALR oxidase inhibition via reduced H2O2. P55789. purified ALR, DTT oxidation, H2O2 HRP-luminol luminescence. inhibition, % (no concentration beside the values). 290,000 tested, 3.8% active. AID 485317;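 active = mean and each replicate at 75% or more; inconclusive = only one of the two met; inactive = neither met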;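 also: stock transfer was 7.5 nL into about 7.5 µL; 0% = neutral wells and 100% = wells with inactivated enzyme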
# * = called active by the depositor; · = no result. This is a sample that favours compounds with a hit; in the whole collection about 4.2% have one here.
mol	MC4R antagonist	NALP1 inh	Yeast UUG start	MC4R barr agon	HDAC3 inhib	ALR inh
O=[N+]([O-])c1cccc(-c2cn(-c3ccccc3)c(=S)[nH]2)c1	8	6	·	-2	14	2
Nc1ccc(-n2cc(-c3ccccc3)[nH]c2=S)cc1	9	-4	-27	-2	6	91*
O=[N+]([O-])c1ccc(-c2cn(-c3ccccc3)c(=S)[nH]2)cc1	8	25	-10	2	4	-2
S=c1[nH]c(-c2ccccc2)cn1-c1ccccc1	-2	12	-29	0	12	97*
COC(=O)c1ccc(-n2cc(-c3ccc(OC)cc3)[nH]c2=S)cc1	-3	36	·	1	2	88*
OC[C@@H]1[C@H](c2ccc(Br)cc2)[C@@H]2CN(Cc3cncnc3)CCCCN12	·	·	1	·	·	·
C[C@@H]1CN([C@H](C)CO)C(=O)c2cc(NC(=O)CCCN(C)C)ccc2O[C@@H]1CN(C)Cc1ccc(C(F)(F)F)cc1	·	·	-4	·	·	·
Cc1cccc(S(=O)(=O)N2CC[C@@H]3[C@H]2c2cc(C#Cc4cccc(F)c4)ccc2N[C@@H]3CO)c1	·	·	-1	·	·	·
CC(C)COC(=O)NC1c2ccccc2Oc2ccccc21	12	3	-20	10*	5	-11
CC(C)C#Cc1cnc2c(c1)C(=O)N([C@@H](C)CO)C[C@H](C)[C@H](CN(C)C(=O)Nc1ccc(F)cc1)O2	·	·	-7	·	·	·
O=C(C[C@@H]1C=C[C@@H](NC(=O)c2ccc(F)cc2)[C@H](CO)O1)NCc1ccncn1	·	·	-6	·	·	·
CC(C)c1ccc2c(c1)C(=O)NC(C)(C)C2	3	-5	-17	-2	5	92*
CC1(C)Cc2ccccc2C(=O)N1	-8	14	·	-2	-4	-3
C[C@H](CO)N1C[C@H](C)[C@H](CN(C)C(=O)Nc2ccc3c(c2)OCO3)OCCCC[C@H](C)Oc2ccc(NS(=O)(=O)c3cn(C)cn3)cc2C1=O	·	·	-1	·	·	·
C[C@@H]1CCCCO[C@H](CN(C)C(=O)c2ccccc2)[C@H](C)CN([C@@H](C)CO)C(=O)c2cc(NC(=O)Nc3ccc(F)cc3)ccc2O1	·	·	0	·	·	·
Cc1cc(C(=O)CCl)c(C)n1Cc1ccco1	19	-16	·	-2	3	97*
Cc1cc(C(=O)CSc2nnnn2C)c(C)n1CCc1ccc(Cl)cc1	6	10	-9	1	-3	-3
CCOC(=O)c1cc(C)n(CCc2ccccc2)c1C	-5	-7	-3	3	7	23
COc1ccc(CCn2c(C)cc(C(=O)CSc3nnnn3-c3ccccc3)c2C)cc1	-19	34	-9	8.7*	6	2
Cc1cc(C(=O)CCl)c(C)n1CCc1ccccc1	·	-48	·	·	7	96*
C[C@@H]1CN([C@H](C)CO)C(=O)c2cccc(NC(=O)c3nc4ccccc4s3)c2O[C@H]1CN(C)C(=O)Nc1ccccc1	·	·	19	·	·	·
C[C@@H]1CCCCO[C@H](CN(C)Cc2ccc3c(c2)OCO3)[C@@H](C)CN([C@H](C)CO)C(=O)c2cc(NC(=O)C3CCCCC3)ccc2O1	·	·	12	·	·	·
O=C(CNC(=O)c1ccco1)NCC(=O)OCC(=O)c1ccc(Cl)c([N+](=O)[O-])c1	10	10	-9	-2	-1	98*
O=C(CNC(=O)c1ccco1)OCC(=O)c1ccc(Cl)cc1	-5	-9	1	2	-2	·
O=C(CNC(=O)c1ccco1)OCC(=O)c1ccc([N+](=O)[O-])cc1	4	20	-19	-2	5	99*

# Rewritten with the structure last: entries from further up.
MC4R antagonist	NALP1 inh	Yeast UUG start	MC4R barr agon	HDAC3 inhib	ALR inh	SMILES
·	·	-4	·	·	·	C[C@@H]1CN([C@H](C)CO)C(=O)c2cc(NC(=O)CCCN(C)C)ccc2O[C@@H]1CN(C)Cc1ccc(C(F)(F)F)cc1
10	10	-9	-2	-1	98*	O=C(CNC(=O)c1ccco1)NCC(=O)OCC(=O)c1ccc(Cl)c([N+](=O)[O-])c1
19	-16	·	-2	3	97*	Cc1cc(C(=O)CCl)c(C)n1Cc1ccco1
12	3	-20	10*	5	-11	CC(C)COC(=O)NC1c2ccccc2Oc2ccccc21
-19	34	-9	8.7*	6	2	COc1ccc(CCn2c(C)cc(C(=O)CSc3nnnn3-c3ccccc3)c2C)cc1

# Following part
mol	MC4R antagonist	NALP1 inh	Yeast UUG start	MC4R barr agon	HDAC3 inhib	ALR inh
CCCCCCc1c(C)nc(-n2[nH]c(C)c(CCO)c2=O)[nH]c1=O	27	0	·	-5	5	86*
Cc1oc(-c2ccccc2)cc1C(=O)Nc1cccc(/C=C\C(=O)O)c1	10	9	·	2	6	96*
Cc1oc(C(C)(C)C)cc1C(=O)Nc1cccc(/C=C\C(=O)O)c1	28	31	·	1	·	·
COc1cccc(Oc2cn[nH]c2-c2ccc(O)cc2O)c1	14	-41	-7	0	1	80*
COc1ccc(-c2cn[nH]c2-c2ccc(OCc3ccccc3)cc2O)cc1	6	·	·	9.3*	12	2
COc1ccc(-c2cn[nH]c2-c2ccc(OC)cc2O)cc1	-8	12	·	2	6	97*
CN(C)C(=O)C[C@H]1CC[C@H]2[C@@H](COC[C@H](O)CN2Cc2ccc(C(F)(F)F)cc2)O1	·	·	3	·	·	·
Cc1noc(C)c1NC(=O)N(C)C[C@@H]1OCCCC[C@@H](C)Oc2ccc(NS(=O)(=O)c3cccs3)cc2C(=O)N([C@H](C)CO)C[C@H]1C	·	·	-5	·	·	·
C=CCn1c(=S)[nH]c2sc3c(c2c1=O)CCCC3	12	3	-14	-1	3	49
C=CCn1c(SCC(C)=O)nc2scc(-c3ccc(C)o3)c2c1=O	0	-16	-17	8.3*	-1	96*
C=CCn1c(=S)[nH]c2sccc2c1=O	-3	-9	·	-4	0	98*
Cc1ccc(-c2csc3nc(C)n(N)c(=O)c23)o1	-8	-16	-7	-1	-4	4
C=CCn1c(=S)[nH]c2scc(-c3ccc(C)o3)c2c1=O	11	-26	·	-2	1	98*
C[C@H]1CCCCO[C@H](CN(C)Cc2ccc(C(=O)O)cc2)[C@@H](C)CN([C@@H](C)CO)C(=O)c2cc(NS(=O)(=O)c3cccs3)ccc2O1	·	·	22	·	·	·
CO[C@@H]1CN(C)C(=O)c2cc(NS(=O)(=O)c3cccc(F)c3)ccc2OC[C@@H](C)N(Cc2cc(F)ccc2F)C[C@H]1C	·	·	2	·	·	·
O=C(CSc1nc2ccccc2n1S(=O)(=O)c1cccc([N+](=O)[O-])c1)NCCc1ccccc1	3	22	·	9.4*	5	·
CCOC(=O)N1CCN(C(=O)CN(C2CCCCC2)S(=O)(=O)c2ccc(Cl)cc2)CC1	6	23	12	2	-2	-2
CCOC(=O)N1CCN(C(=O)CN(C2CCCCC2)S(=O)(=O)c2ccc(F)cc2)CC1	8	38*	·	-1	-1	-11
Cc1cc(C)cc(OCC(=O)Nc2ccc(N3CCCCC3)cc2)c1	6	·	-9	8.8*	-2	·
O=C(CN1CCN(c2ccc(O)cc2)CC1)Nc1cc([N+](=O)[O-])ccc1Cl	4	16	·	-1	5	99*
CC(=O)N1CCN(CC(=O)Nc2cc([N+](=O)[O-])ccc2Cl)CC1	-4	7	-20	-1	-2	-10

# From PubChem
